One compound from PubChem BioAssay AID1792 (The Scripps Research Institute Molecular Screening Center, 2009) can be followed below.

By UniProt entry, the sequences of proteins in these tests, tags left out.
UniProt Q9Y5S8, whole entry: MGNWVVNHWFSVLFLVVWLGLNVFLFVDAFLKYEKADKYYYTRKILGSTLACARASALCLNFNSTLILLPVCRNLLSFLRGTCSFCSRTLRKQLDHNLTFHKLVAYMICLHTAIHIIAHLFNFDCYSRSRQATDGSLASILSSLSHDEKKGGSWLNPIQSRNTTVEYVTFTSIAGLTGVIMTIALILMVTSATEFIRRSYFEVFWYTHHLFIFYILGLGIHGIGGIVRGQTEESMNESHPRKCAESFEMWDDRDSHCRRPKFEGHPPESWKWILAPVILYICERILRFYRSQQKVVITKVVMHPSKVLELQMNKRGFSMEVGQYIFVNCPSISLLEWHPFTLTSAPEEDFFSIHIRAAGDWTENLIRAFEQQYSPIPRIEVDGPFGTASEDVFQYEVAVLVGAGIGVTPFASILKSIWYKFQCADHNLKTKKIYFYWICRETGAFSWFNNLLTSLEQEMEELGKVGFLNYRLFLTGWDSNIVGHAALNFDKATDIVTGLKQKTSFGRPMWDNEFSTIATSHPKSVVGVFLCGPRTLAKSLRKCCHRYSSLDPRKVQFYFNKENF

Broadly, the inhibition is the relative decrease from the control value, in per cent.

Only a part is listed here, and it is no random draw. Activity calls are given as the source filed them. Cut-off read from the data, not from the text of the source: active = inhibition above about 75%; inactive = the rest.

The experiment deals with NADPH oxidase 1 (Homo sapiens) (UniProt Q9Y5S8). The experiment can be described thus: blocks human NADPH oxidase 1 activity (AID 1792). Conditions: HT29 cells, luminol chemiluminescence ROS; at 6.7 µM; active compounds read high.
With `Cc1ccccc1NC1CC(C)(C)NC(C)(C)C1`, the inhibition was inactive: -9.6%.
